Experimental data: patent publication US8524809B2, “Low odor compositions and methods to attain low odor compositions” (Rohm and Haas Company, priority 2010, dated 2013)

Experiment: Nucleophilic reagents: aldehyde content in vinyl acetate-acrylic latex
Settings: Rovace 9900 pre-treated 1 week with 50 ppm N51032; reagent 50 ppm, 55° C. 2 hours, then 1 week RT

Structure (SMILES): C1CN1
- Acetaldehyde Headspace Concentration: 175 ppm
- Acetone Headspace Concentration: 247 ppm
- Ethanol Headspace Concentration: 21 ppm
- butanal Headspace Concentration: 1 ppm
- l-butanol Headspace Concentration: 59 ppm
- t-butanol Headspace Concentration: 274 ppm
